The entries are a selection whose mix differs from that of the whole data set. Some salts and complexes are drawn in separate pieces, as the source files them; their charges need not balance. The source made the active and inactive calls.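 How the source made its calls: active means inhibition reaching a set limit with compound at 10 µM in the primary screen (cut at about 35% in these data); inactive means the rest.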

Chains of the proteins cited; added tags and fusions are not shown.
UniProt P09923, whole entry: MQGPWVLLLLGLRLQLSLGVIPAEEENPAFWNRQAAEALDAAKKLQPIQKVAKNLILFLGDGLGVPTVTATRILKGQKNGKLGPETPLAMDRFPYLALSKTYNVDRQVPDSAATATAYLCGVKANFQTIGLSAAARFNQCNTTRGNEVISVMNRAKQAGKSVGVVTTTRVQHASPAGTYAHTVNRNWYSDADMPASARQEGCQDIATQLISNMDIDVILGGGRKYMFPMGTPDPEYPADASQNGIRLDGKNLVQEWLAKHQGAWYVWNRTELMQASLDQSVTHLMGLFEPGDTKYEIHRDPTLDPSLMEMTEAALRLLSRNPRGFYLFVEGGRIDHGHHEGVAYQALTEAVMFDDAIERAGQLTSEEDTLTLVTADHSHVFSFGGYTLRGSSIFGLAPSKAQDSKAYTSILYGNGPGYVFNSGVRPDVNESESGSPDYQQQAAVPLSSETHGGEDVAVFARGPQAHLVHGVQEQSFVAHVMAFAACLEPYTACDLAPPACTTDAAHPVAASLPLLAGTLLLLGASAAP

The test addresses Intestinal-type alkaline phosphatase (Homo sapiens) (UniProt P09923). The experiment in a line: blockers of intestinal alkaline phosphatase activity – biochemical, luminescence, uHTS, primary screen (AID 2544).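 Further: plate controls were DMSO wells with enzyme for no effect and no-enzyme buffer wells for full effect.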 The following applies: purified IAP, CDP-Star luminescence, 30 min; at 10 µM; hits give high values.
Regarding `CP(=S)(Nn1cnnc1)Oc1ccccc1` (configuration not stated), the inhibition – broadly, the relative decrease from the control value, in per cent – is inactive: 10.1%.

Take `COc1ccccc1OP(C)(=O)Nc1ccccc1` (configuration not stated): the inhibition is inactive: -13.6%.

With `CP(=O)(Nc1ccccc1Br)Oc1ccccc1` (configuration not stated), the inhibition is inactive: 8.8%.

`Cc1cccc(C)c1OP(C)(=O)Nc1ccc(SC(F)(F)F)cc1` (configuration not stated): the inhibition was inactive: 5.3%.

Consider `CP(=O)(Nc1ccc(SC(F)(F)F)cc1)Oc1ccc(Cl)cc1` (configuration not stated), for which the inhibition was inactive: -8%.

On to `CP(=O)(Oc1ccccc1)OC(c1ccccc1)C(F)(F)F` (configuration not stated), for which the inhibition was inactive: 3.2%.

`CP(=O)(NC(=O)Nc1ccccc1)Oc1ccccc1` (configuration not stated): the inhibition was inactive: -11.5%.

On to `CCc1ccc(OP(C)(=O)N2CCN(c3ccc([N+](=O)[O-])cc3)CC2)cc1` (configuration not stated), for which the inhibition was inactive: 2.2%.

`Cc1cc(C)cc(OP(C)(=O)Nc2ccc(SC(F)(F)F)cc2)c1` (configuration not stated): the inhibition was inactive: 14.6%.

As for `CCOP(C)(=S)SCC(=O)NC(C)C(=O)O` (configuration not stated), the inhibition is inactive: -8.9%.

Take `CCOC(=O)c1ccc(NP(C)(=O)Oc2ccc(OC)cc2)cc1` (configuration not stated): the inhibition was inactive: -8%.

Take `O=[N+]([O-])c1cc([N+](=O)[O-])c(O)c([N+](=O)[O-])c1.c1ccc(Oc2ccncc2)cc1`: the inhibition is inactive: -7.6%.

As for `CP(=O)(Nc1ccccn1)Oc1ccc(Cl)cc1` (configuration not stated), the inhibition is inactive: -13.1%.

Regarding `CCN(CC)CCCOC(=O)C(O)(c1ccccc1)c1ccccc1`, the inhibition is inactive: -3.3%.

As to `O=[N+]([O-])c1cc([N+](=O)[O-])c(Nc2cccnc2)c([N+](=O)[O-])c1`, the inhibition is inactive: 25.7%.

Turning to `CC(C)(C)c1ccc(OP(C)(=O)Nc2ccc(SC(F)(F)F)cc2)cc1` (configuration not stated), the inhibition is inactive: -2.7%.

On to `Cc1cccc(C)c1OP(C)(N)=O` (configuration not stated), for which the inhibition is inactive: -5.3%.

Consider `CCOC(=O)c1ccc(NP(C)(=O)Oc2ccccc2)cc1` (configuration not stated), for which the inhibition is inactive: 4.9%.

On to `COc1ccccc1OP(C)(=O)Nc1ccc(C)cc1` (configuration not stated), for which the inhibition is inactive: -1.5%.

With `Cc1ccc(NP(C)(=O)Oc2ccccc2)c(C)c1` (configuration not stated), the inhibition is inactive: 3.8%.

For `COc1ccccc1OP(C)(=O)Nc1cc(Cl)ccc1C` (configuration not stated), the inhibition was inactive: -8.8%.

As for `COc1ccc(OP(C)(=O)Nc2cccc(F)c2)cc1` (configuration not stated), the inhibition was inactive: 1%.

Consider `Cc1cc(C)cc(OP(C)(N)=O)c1` (configuration not stated), for which the inhibition was inactive: -30.4%.

In the case of `O=C(O)c1cccc(Nc2c([N+](=O)[O-])cc([N+](=O)[O-])cc2[N+](=O)[O-])c1`, the inhibition was inactive: 15.3%.

Regarding `CC1=NCCc2c1[nH]c1ccccc21.O=[N+]([O-])c1cc([N+](=O)[O-])c(O)c([N+](=O)[O-])c1`, the inhibition is inactive: 13.1%.

As to `COc1ccccc1OP(C)(=O)Nc1cccc(Br)c1` (configuration not stated), the inhibition was inactive: 12.1%.

For `Cc1cc(C)cc(OP(C)(=O)Nc2ccc(C)cc2C)c1` (configuration not stated), the inhibition was inactive: -9%.

For the molecule `CCOC(=O)c1ccc(NP(C)(=O)Oc2cc(C)cc(C)c2)cc1` (configuration not stated), the inhibition was inactive: 4%.

As to `Cc1cc(C)cc(OP(C)(=O)Nc2ccccn2)c1` (configuration not stated), the inhibition is inactive: 7.3%.

On to `CP(=O)(Nc1cccc(Br)c1)Oc1ccccc1` (configuration not stated), for which the inhibition is inactive: 10.3%.

Consider `Cc1ccc(C)c(NP(C)(=O)Oc2ccccc2)c1` (configuration not stated), for which the inhibition is inactive: -6.6%.

Turning to `O=[N+]([O-])c1cc([N+](=O)[O-])c(-n2nnc3ccccc32)c([N+](=O)[O-])c1`, the inhibition was inactive: 6.6%.

Take `O=[N+]([O-])c1cc([N+](=O)[O-])c(-c2cnn(-c3ccccc3)c2)c([N+](=O)[O-])c1`: the inhibition was inactive: 8.1%.

Turning to `Cc1nc2ccc3ccccc3c2s1.O=[N+]([O-])c1cc([N+](=O)[O-])c(O)c([N+](=O)[O-])c1`, the inhibition was inactive: 0.8%.

On to `CC1=C2N=C(C=C3N=C(C(C)=C4[N-][C@@](C)([C@@H]5N=C1[C@](C)(CCC(=O)NC[C@@H](C)OP(=O)([O-])O[C@H]1[C@@H](O)[C@@H](n6cnc7cc(C)c(C)cc76)O[C@@H]1CO)[C@H]5CC(N)=O)[C@@](C)(CC(N)=O)[C@@H]4CCC(N)=O)[C@@](C)(CC(N)=O)[C@@H]3CCC(N)=O)C(C)(C)[C@@H]2CCC(N)=O.[C-]#N.[Co+3]`, for which the inhibition is inactive: 20.2%.

Take `O=[N+]([O-])c1cc([N+](=O)[O-])c(Nc2nnnn2CCO)c([N+](=O)[O-])c1`: the inhibition is inactive: 22.9%.

`CCOC(=O)C(CC)C1=NC(C)(C)Cc2ccccc21.O=[N+]([O-])c1cc([N+](=O)[O-])c(O)c([N+](=O)[O-])c1` (configuration not stated): the inhibition is inactive: 9.8%.

As to `COc1ccccc1OP(C)(=O)Nc1c(C)cccc1C` (configuration not stated), the inhibition is inactive: -3.1%.

As to `CN1CCCCC1COC(=O)C1(O)c2ccccc2CCc2ccccc21` (configuration not stated), the inhibition was inactive: -70.1%.

Consider `CCCOc1ccc(NP(C)(=O)Oc2ccc(Cl)cc2)cc1` (configuration not stated), for which the inhibition was inactive: 1.8%.

As for `CP(=O)(Nc1ccc(SC(F)(F)F)cc1)Oc1ccccc1` (configuration not stated), the inhibition is inactive: 13.4%.

With `COc1ccc(OP(C)(=O)Nc2cccc(Br)c2)cc1` (configuration not stated), the inhibition was inactive: -2.9%.

For `COc1ccc(NP(C)(=O)Oc2ccccc2OC)cc1` (configuration not stated), the inhibition is inactive: -14.3%.

As for `CN(C)CCOC(=O)C(O)(c1ccccc1)C1CCCCC1` (configuration not stated), the inhibition is inactive: -0.3%.

In the case of `O=[N+]([O-])c1cc([N+](=O)[O-])c(NCC2CCS(=O)(=O)C2)c([N+](=O)[O-])c1` (configuration not stated), the inhibition is inactive: -15.1%.

As for `CP(=O)(Nc1ccc(SC(F)(F)F)cc1)Oc1ccc(F)cc1` (configuration not stated), the inhibition was inactive: 1.8%.

Take `CCOP(C)(=S)SCC(=O)NC(C)(CC)C(=O)O` (configuration not stated): the inhibition is inactive: 3.8%.

For the molecule `CP(=O)(Nc1ccc2c(c1)OCCO2)Oc1ccccc1` (configuration not stated), the inhibition is inactive: -2.9%.

On to `Cc1ccccc1NP(C)(=O)Nc1ccccc1C`, for which the inhibition was inactive: -20.7%.

For `CC(C)c1ccc(OP(C)(=O)Nc2ccc(SC(F)(F)F)cc2)cc1` (configuration not stated), the inhibition is inactive: -15.2%.

As for `CP(=O)(Nc1ccccc1F)Oc1ccccc1` (configuration not stated), the inhibition is inactive: 16.1%.

As to `O=C(OCCN1CCN(CCOCc2ccccc2)CC1)C(O)(c1ccccc1)c1ccccc1`, the inhibition is inactive: -8%.

For the molecule `O=C(OC1CN2CCC1CC2)c1ccc([N+](=O)[O-])cc1` (configuration not stated), the inhibition was inactive: -19.1%.

Turning to `COc1ccc2c(c1O)-c1c(O)c(OC)cc3c1[C@H](C2)[N+](C)(C)CC3.O=[N+]([O-])c1cc([N+](=O)[O-])c([O-])c([N+](=O)[O-])c1[O-]`, the inhibition was inactive: 15.6%.

Take `COc1ccc(OP(C)(=O)Nc2ccc(SC(F)(F)F)cc2)cc1` (configuration not stated): the inhibition is inactive: -3.7%.

Take `CCOC(=O)c1ccc(NP(C)(=O)Oc2ccc(F)cc2)cc1` (configuration not stated): the inhibition was inactive: 6.7%.

For the molecule `CCN(CC)CCCOC(=O)C(O)(c1ccccc1)C1CCCCC1` (configuration not stated), the inhibition is inactive: -0.4%.

Regarding `O=[N+]([O-])c1cc([N+](=O)[O-])c(OC2CCCCC2O)c([N+](=O)[O-])c1` (configuration not stated), the inhibition is inactive: 0.1%.

Take `CCCCCOc1ccc(NP(C)(=O)Oc2ccc(Cl)cc2Cl)cc1` (configuration not stated): the inhibition is inactive: -17.5%.

For `CP(=O)(Nc1ccccc1)Oc1ccc(F)cc1` (configuration not stated), the inhibition was inactive: 2.6%.

Turning to `Cc1cc(C)cc(OP(C)(=O)Nc2cccc(C(F)(F)F)c2)c1` (configuration not stated), the inhibition was inactive: 5.3%.

On to `COc1ccc(OP(C)(=O)Nc2ccccc2Br)cc1` (configuration not stated), for which the inhibition is inactive: 0.8%.

`COc1ccccc1OP(C)(=O)Nc1ccc(C)c(C)c1` (configuration not stated): the inhibition is inactive: -0.2%.

On to `Cc1nc2ccc3ccccc3c2o1.O=[N+]([O-])c1cc([N+](=O)[O-])c(O)c([N+](=O)[O-])c1`, for which the inhibition was inactive: -3.1%.

In the case of `CP(=O)(Nc1ccc(Cl)cc1Cl)Oc1ccccc1` (configuration not stated), the inhibition is inactive: -0.2%.

For `CP(=O)(OCCOc1ccccc1)OCCOc1ccccc1`, the inhibition is inactive: 10.9%.

Take `COc1ccccc1OP(C)(=O)Nc1ccc(Br)cc1` (configuration not stated): the inhibition was inactive: -5.5%.

Consider `CN(C)CCOC(=O)C(O)(c1ccccc1)C1CCCC1` (configuration not stated), for which the inhibition was inactive: -22.2%.

In the case of `COc1ccc(OP(C)(=O)Nc2ccccn2)cc1` (configuration not stated), the inhibition is inactive: 14.7%.

Regarding `Cc1c(NP(C)(=O)Oc2ccc(C(C)C)cc2)c(=O)n(-c2ccccc2)n1C` (configuration not stated), the inhibition was inactive: -6%.

In the case of `O=[N+]([O-])c1cc([N+](=O)[O-])c(Nc2ccccn2)c([N+](=O)[O-])c1`, the inhibition was inactive: 29.9%.

For the molecule `CCc1ccc(OP(C)(=O)O)cc1`, the inhibition was inactive: -4.8%.

As for `CP(=O)(Nc1ccccn1)Oc1ccccc1` (configuration not stated), the inhibition is inactive: -2%.

`COc1ccccc1OP(C)(=O)Nc1ccc(C)cc1C` (configuration not stated): the inhibition was inactive: -8.8%.

Take `CCN(CC)CC(O)COC(=O)C(O)(c1ccccc1)C1CCCCC1` (configuration not stated): the inhibition is inactive: 17.1%.

With `COc1ccc(OP(C)(=O)Nc2ccc(Br)cc2)cc1` (configuration not stated), the inhibition was inactive: -114%.

Take `CP(=O)(Oc1ccccc1)N1CCOC1=O` (configuration not stated): the inhibition was inactive: -5%.

`CCc1ccc(OP(C)(=O)Nc2cccnc2)cc1` (configuration not stated): the inhibition was inactive: -2%.

Turning to `COc1ccccc1OP(C)(=O)Nc1c(C)n(C)n(-c2ccccc2)c1=O` (configuration not stated), the inhibition is inactive: 2.6%.

With `O=C(OCCCN1CCCC1)C(O)(c1ccccc1)C1CCCCC1` (configuration not stated), the inhibition is inactive: 5.9%.

For the molecule `CP(=O)(Nc1ccc(Cl)cc1)Oc1ccc(F)cc1` (configuration not stated), the inhibition is inactive: 12.9%.

For the molecule `COc1ccccc1OP(C)(=O)Nc1ccccc1Br` (configuration not stated), the inhibition is inactive: 4.2%.

`CC(C)(C)c1ccc(OP(C)(=O)O)cc1`: the inhibition is inactive: 13.3%.

Regarding `CN(C)C(=O)c1c([N+](=O)[O-])cc([N+](=O)[O-])cc1[N+](=O)[O-]`, the inhibition was inactive: -2.5%.

As to `Nc1ccc2c(ccc3cccnc32)n1.O=[N+]([O-])c1cc([N+](=O)[O-])c(O)c([N+](=O)[O-])c1`, the inhibition was inactive: 12.9%.

`CP(=O)(OC12CC3CC(CC(C3)C1)C2)OC12CC3CC(CC(C3)C1)C2`: the inhibition is inactive: -15.5%.

Consider `CCOC(=O)c1ccc(NP(C)(=O)Oc2ccc(Cl)cc2)cc1` (configuration not stated), for which the inhibition is inactive: 0.2%.
